Only some compounds are listed: those with a hit (about 16% of all), similar ones and a draw of the others.
TDP1 cell CPT: growth inhibition of DT40 Tdp1-/-;hTDP1 cells with camptothecin (screen for TDP1 inhibitors) | chicken DT40 Tdp1-/-;hTDP1 cells + 20 nM CPT, ATP luminescence, 48 h | Potency, µM (highest dose often 46.2 µM), for inactives: at the top dose activity change, negative = growth inhibition, hits mostly inhibitors | 420,000 compounds, 12% hits | AID 686979; further: potency means the concentration at half of the fitted maximal effect; on the % scale 0 is the no-effect control and ±100 the full control effect; nearly all actives have a fitted effect of over 55% in size
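Cell growth measured by CellTiter-Glo luminescence after a minimum 48 h, 37 C compound exposure with 20 nM CPT in Tdp1-knockout DT40 cells stably expressing hTDP1, seeded 400/well; qHTS titration format.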
uPA surface inh: cell surface uPA generation inhibition; cell surface uPA generation assay, qHTS; Potency, µM (top dose mostly 38.3 µM), for the others: at the top dose activity change, negative = inhibition, actives largely listed as inhibitors; 330,000 compounds, 0.31% hits; active means well fitted inhibition curve with a large enough effect; inconclusive means small, poorly fitted or top-dose-only effect; inactive means no such curve, though single readings can be large or run the other way; tested in mouse RAW 264.7 cells; further: potency means the concentration at half of the fitted maximal effect; on the % scale 0 is the no-effect control and ±100 the full control effect; nearly all actives have a fitted effect of over 55% in size
TDP1 block: blocks human tyrosyl-DNA phosphodiesterase 1 | 350,000 compounds, 0.28% hits | recombinant TDP1, AlphaScreen DNA substrate cleavage | Q9NUW8 | Potency, µM (top dose mostly 130 µM), without a hit: at the highest dose activity change, negative = inhibition, actives largely listed as inhibitors; further: potency means the concentration at half of the fitted maximal effect; on the % scale 0 is the no-effect control and ±100 the full control effect; nearly all actives have a fitted effect of over 40% in size
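Tdp1 1 nM final; 15 min RT w/ cpd; substrate 15 nM, 5 min; beads 10 ug/ml, 10 min; AlphaScreen read. Neg ctrl: no enzyme.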
DT40 TDP1 no CPT: qHTS for Inhibitors of human tyrosyl-DNA phosphodiesterase 1 (TDP1): qHTS in cells in absence of CPT. DT40 Tdp1-/- hTDP1 cells, no CPT, ATP luminescence, 48 h. Potency, µM (series often up to 46.2 µM), for the others: top-dose activity change, negative = growth inhibition, most hits filed as inhibitors. 420,000 compounds, 15% hits. AID 686978, 2013; further: potency means the concentration at half of the fitted maximal effect; on the % scale 0 is the no-effect control and ±100 the full control effect; nearly all actives have a fitted effect of over 55% in size
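A cellular qHTS used chicken DT40 cells lacking endogenous Tdp1 but carrying stably transfected human TDP1. Compounds were applied without camptothecin, and cell growth kinetics were judged by ATP-dependent luminescence after ≥48 hr.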
miR-21 reporter: miR-21 reporter, rising signal; Potency, µM (top dose mostly 38.3 µM), for the others: at the highest dose reporter change, positive = more light; 340,000 tested, under 10 active; HeLa miR-21 FLuc reporter, luciferase, 48 h; active = well fitted rising curve with a large enough effect; inconclusive = small, poorly fitted or top-dose-only effect; inactive = no such curve, though single readings can be large or run the other way;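 note: % of control where 0% means no effect; miR-21 action dims this reporter so a rising signal means less miR-21 action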
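HeLa miR-21-FLuc reporter line, endogenous miR-21; 2000 cells/well in DMEM/10% FBS; compound titration up to ~40uM final, 48 h, 37 degree Celsius; luciferase detection reagent, 15 min lysis, CCD luminescence.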
The depositor's hits bear a star; ? = inconclusive; . = not tested or not shown; [ ] = dose if it differs, or a comment. Unless noted, the call rests on the fitted dose curve; in most records, active means well fitted curve in the direction sought with a large enough effect; inconclusive means small, poorly fitted or top-dose-only effect, or another doubt; inactive means no such curve, though single readings can be large; an effect the other way counts as inactive or inconclusive.

molecule	TDP1 cell CPT	uPA surface inh	TDP1 block	DT40 TDP1 no CPT	miR-21 reporter
COc1ccc(Cl)cc1-c1cc(C(=O)NCc2cc(C(F)(F)F)cc(C(F)(F)F)c2)[nH]n1	?	.	.	15µM*	.
Cc1cc(F)ccc1-c1cc(C(=O)NCc2cccs2)[nH]n1	-37%	.	.	?	.
Cc1ccc(F)cc1-c1cc(C(=O)NCc2cc(C(F)(F)F)cc(C(F)(F)F)c2)[nH]n1	29µM*	.	.	?	.
CC(C)Oc1ccc(F)cc1-c1cc(C(=O)Nc2ccc(C(C)(C)C)cc2)[nH]n1	6.5µM*	.	.	3.3µM*	.
Cc1ccc(CNC(=O)Cc2c(C)c3cc4c(C)coc4cc3oc2=O)cc1	-1%	.	7%	-20%	8%
Cc1coc2cc3oc(=O)c(CC(=O)NCc4ccccc4)c(C)c3cc12	5.8µM*	.	-2%	5.2µM*	18%
Cc1coc2cc3oc(=O)c(Cc4ccccc4)c(C)c3cc12	-23%	6%	-3%	-28%	-4%
Cc1coc2cc3oc(=O)c(CC(=O)NCc4cccc(Cl)c4)c(C)c3cc12	?	.	0%	21µM*	24%
Cc1coc2cc3oc(=O)c(CC(=O)NCCc4ccccc4F)c(C)c3cc12	-23%	.	-2%	-27%	10%
Cc1coc2cc3oc(=O)c(CC(=O)NCc4ccc(F)cc4)c(C)c3cc12	6.5µM*	.	0%	5.8µM*	?
CCCCCCN1CC(C(=O)OCC)C(=O)C1=O (configuration not stated)	-9%	0%	4%	-14%	-2%
Cc1ccc(N2C(=O)CSC23C(=O)N(CC(=O)Nc2ccc(C)cc2C)c2ccccc23)cc1 (configuration not stated)	?	.	6%	?	7%
C[C@H](NC(=O)c1ccco1)C(=O)Nc1ccc(C#N)cc1	-9%	1%	.	?	3%
COc1ccccc1Oc1nc(C)c(C(C)=O)cc1C#N	-2%	2%	6%	-24%	1%
COc1ccccc1Oc1cc(C#N)c(C#N)cc1-n1nnc2ccccc21	23µM*	.	-1%	18µM*	-5%
O=[N+]([O-])c1cc([N+](=O)[O-])c(Oc2cncc(Cl)c2)cc1NC1CCCCCCC1	23µM*	?	.	15µM*	-1%
O=[N+]([O-])c1cc([N+](=O)[O-])c(Oc2cc(Cl)ccc2Cl)cc1NC1CCCCCCC1	18µM*	-3%	.	?	0%
O=C(NC1CC1)c1nc(Cn2ccc([N+](=O)[O-])n2)no1	-3%	2%	-14%[0.0935 µM]	?	0%
CCCCCCCCC(c1nc2ccccc2[nH]1)N1CCN=C1c1cc2ccccc2[nH]1 (configuration not stated)	7.3µM*	.	.	6.5µM*	.
CCCCCCN1CC(O)=C(c2nc3ccccc3[nH]2)C1=N	-1%	-1%	9%	-2%	-20%
CCCN(CCC)C(=S)NC(=O)c1ccc(Cl)cc1Cl	18µM*	-20%	5%	?	8%
Cc1ccccc1C(=O)NNC(=S)NC(=O)c1ccc(Cl)cc1Cl	?	1%	8%	?	-6%
COc1cc2c(cc1NC(=S)NC(=O)/C=C/c1ccco1)oc1ccccc12	16µM*	1%	11%	?	-2%
COc1ccc(/C=C/C(=O)NC(=S)Nc2cc3oc4ccccc4c3cc2OC)cc1	9.2µM*	4%	6%	?	0%
COc1cc2c(cc1NC(=S)NC(=O)/C=C/c1ccc(OC)c(OC)c1)oc1ccccc12	6%	-2%	6%	5%	-9%
CCOC(=O)[C@H]1[C@H]2COc3ccc(Br)cc3[C@@H]2N2C(=O)CN(Cc3ccc(Cl)cc3)C(=O)[C@@]12C	18µM*	-13%	2%	?	.
CCOC(=O)[C@H]1[C@H]2COc3ccc(Br)cc3[C@H]2N2C(=O)CN(Cc3ccc(Cl)cc3)C(=O)[C@@]12C	?	-20%	.	23µM*	.
CCOC(=O)[C@H]1[C@H]2COc3ccc(C)cc3[C@@H]2N2C(=O)CN(Cc3ccc(Cl)cc3)C(=O)[C@@]12C	-26%	15%	1%	2%	.
CCOC(=O)[C@H]1[C@H]2COc3ccc(Br)cc3[C@@H]2N2C(=O)CN(Cc3ccc(F)cc3)C(=O)[C@@]12C	?	3%	1%	21µM*	.
COc1ccc(C2COC(=O)C2=N)c(NC(=O)c2ccc(Cl)cc2)c1 (configuration not stated)	2%	4%	5%	-26%	1%
O=C1Nc2ccc3c(c2C1=Cc1cc2c(cc1Br)OCO2)OCO3	3.3µM*	-5%	.	4.6µM*	.
O=C1NC(=O)/C(=C/c2cc3c(cc2Br)OCO3)S1	7%	-6%	.	?	-26%
CCOC(=O)c1ccc(NS(=O)(=O)c2c(N)n(C)c(=O)n(C)c2=O)cc1	16µM*	-9%	.	?	.
CN(Cc1nc(Cc2ccccc2F)no1)Cc1cccc2ncccc12	?	-4%	3%	16µM*	11%
CC(C)c1ccc(S(=O)(=O)N2CCN(C(=O)[C@@H]3CCCN3C(=O)c3cccs3)CC2)cc1	-15%	9%	-11%	?	.
CC(=O)Nc1cc(C(=O)N2CCN(c3ccccc3)CC2C)cc2ncn(CCc3ccccn3)c12 (configuration not stated)	-11%[9.04 µM]	.	.	-14%	.
CC(=O)Nc1cc(C(=O)N2CC3(C)CC2CC(C)(C)C3)cc2ncn(CCc3ccccn3)c12 (configuration not stated)	?	.	.	23µM*	.
CC(C)Cc1nnc(NC(=O)CCC(=O)NCCc2ccccc2)s1	-14%	-8%	-4%	1%	2%
COc1cc(OC)c(OC)cc1/C=c1\[nH]c(=O)/c(=C/c2cc(OC)c(OC)cc2OC)[nH]c1=O	0.79µM*	.	.	0.71µM*	.
COc1cc(OC)c(OC)cc1/C=C1\CCC/C(=C\c2cc(OC)c(OC)cc2OC)C1=O	?	-3%	.	23µM*	-2%
COc1ccc(/C=C2\CCC/C(=C\c3ccc(OC)c(OC)c3OC)C2=O)c(OC)c1OC	?	3%	.	16µM*	-2%
COc1ccc(/C=C2\CC/C(=C\c3ccc(OC)cc3OC)C2=O)c(OC)c1	?	8%	2%	?	-6%
COc1ccc(CCNC(=O)C2CCN(C(=O)c3cccc(Cl)c3)CC2)cc1OC	?	-5%	.	?	4%
CCOc1ccc(S(=O)(=O)N2CCCC(C(=O)NCc3ccccn3)C2)cc1 (configuration not stated)	5%	2%	11%	-11%	-1%
COc1cccc(/C=N/NC(=S)NCCc2ccccc2)c1	?	0%	5%	?	-3%

6 records picked at random from the list so far, as already listed:
molecule	TDP1 cell CPT	uPA surface inh	TDP1 block	DT40 TDP1 no CPT	miR-21 reporter
CCOC(=O)[C@H]1[C@H]2COc3ccc(C)cc3[C@@H]2N2C(=O)CN(Cc3ccc(Cl)cc3)C(=O)[C@@]12C	-26%	15%	1%	2%	.
CC(=O)Nc1cc(C(=O)N2CC3(C)CC2CC(C)(C)C3)cc2ncn(CCc3ccccn3)c12 (configuration not stated)	?	.	.	23µM*	.
CN(Cc1nc(Cc2ccccc2F)no1)Cc1cccc2ncccc12	?	-4%	3%	16µM*	11%
CC(C)Cc1nnc(NC(=O)CCC(=O)NCCc2ccccc2)s1	-14%	-8%	-4%	1%	2%
COc1cc(OC)c(OC)cc1/C=c1\[nH]c(=O)/c(=C/c2cc(OC)c(OC)cc2OC)[nH]c1=O	0.79µM*	.	.	0.71µM*	.
COc1ccc(/C=C2\CCC/C(=C\c3ccc(OC)c(OC)c3OC)C2=O)c(OC)c1OC	?	3%	.	16µM*	-2%
